# Ab-14 light chain CDR variants: yeast mating affinities

Reference: Li et al. 2023, doi:10.1038/s41467-023-39022-2. File: FLAb, binding data.

The target is the same throughout: PDVDLGDISGINAS, from the HR2 region of SARS-CoV-2 spike.

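The parent was found by panning a naive human phage display library on the peptide. These sequences belong to a second round, designed from the earlier measurements on random variants of the parent. Group labels follow the data file (Ctrl: baseline library sampled from a position-specific scoring matrix, with some repeated check sequences; GP: Gaussian process model; GPLM: also part of the Gaussian process libraries; HC: hill climbing; Gen: genetic algorithm; a sequence that several methods proposed may carry one label only). In AlphaSeq, yeast of one mating type display the scFv and yeast of the other type display the target. The frequency of each diploid, read from paired DNA barcodes, reflects how well the two displayed proteins bind. A regression on co-assayed BCL2-family reference pairs converts the normalised counts of each replicate to an apparent Kd. Each pool was mated in six replicate cultures.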

Parent: Ab-14, a human scFv built as VH, a 15-residue (Gly4Ser)3 linker, VL. Only the CDRs of the light chain vary.
VH: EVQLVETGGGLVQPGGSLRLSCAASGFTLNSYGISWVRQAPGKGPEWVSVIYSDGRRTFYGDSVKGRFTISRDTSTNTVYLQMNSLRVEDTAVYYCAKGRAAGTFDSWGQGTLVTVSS
VL: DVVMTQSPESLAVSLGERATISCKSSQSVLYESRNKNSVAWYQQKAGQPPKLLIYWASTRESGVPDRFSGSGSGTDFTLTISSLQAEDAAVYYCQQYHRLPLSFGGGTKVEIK

Positions count from residue 1 of the parent VL; N37Q puts Q in place of N. The read-out is the apparent dissociation constant on a log10 scale (nM): the lower, the stronger. Where no diploid with the target was found in that replicate, the entry reads "ND": below detection, most likely a poor binder, though not proof of it. The authors' rule: three or more of the six replicates give a measured affinity, fewer mean a poor binder.

| # | changes | group | replicates, log10 nM | signal with controls |
|---|---|---|---|---|
| 1 | N37Q | Ctrl | 1.18 0.68 0.43 0.81 0.35 0.65 | 0 of 18 |
| 2 | Y31P/H98Y | Ctrl | ND ND 1.27 0.65 1.26 1.55 | 0 of 18 |
| 3 | V39N/T59V | Ctrl | ND 3.66 ND ND ND ND | 0 of 18 |
| 4 | W56Y/A57D/S62Q/R99H | Ctrl | ND 3.00 2.84 1.73 2.99 2.58 | 2 of 18 (2.98) |
| 5 | K24F/S25W/V29L/L102F | Ctrl | ND ND ND 2.43 ND ND | 0 of 18 |
| 6 | S25V/N37Y/R99G | Ctrl | ND ND ND 2.37 ND 2.05 | 1 of 18 (1.70) |
| 7 | W56H/S103D | Ctrl | 1.72 1.43 3.52 1.46 1.71 1.10 | 0 of 18 |
| 8 | S28P/V39I/W56E | Ctrl | 0.57 0.23 0.39 0.22 0.40 0.53 | 1 of 18 (2.22) |
| 9 | L30C/Y31E/R34W/W56H/L100N | Ctrl | 2.06 1.23 0.46 2.65 3.14 1.22 | 0 of 18 |
| 10 | S25L/S28A | Ctrl | 0.43 0.31 0.01 0.27 0.29 0.63 | 1 of 18 (2.93) |
| 11 | Y31Q/S62Y/H98A | Ctrl | ND 2.61 1.42 1.77 1.60 1.20 | 1 of 18 (2.06) |
| 12 | Q27K/S33M/N35Q/W56N/T59E/S62D/Q96T | Ctrl | 0.56 0.87 0.55 0.80 1.20 1.39 | 0 of 18 |
| 13 | S25F/Y31N/S33L/W56H/A57D/S103I | Ctrl | 1.18 1.16 1.15 1.27 1.88 1.41 | 1 of 18 (2.64) |
| 14 | Y31G/N35P/V39C | Ctrl | 2.15 ND ND ND ND ND | 1 of 18 (1.94) |
| 15 | S26Q/W56D/A57G/R60L/Q95S/Y97A | Ctrl | 0.94 1.32 0.99 0.80 0.87 1.24 | 1 of 18 (2.89) |
| 16 | R34T/W56S | Ctrl | 0.17 0.30 0.22 0.12 0.58 0.32 | 0 of 18 |
| 17 | W56S/S62M | Ctrl | 1.30 0.95 0.54 0.27 0.68 0.90 | 1 of 18 (2.87) |
| 18 | S26D/L102I | Ctrl | 1.86 2.86 1.81 1.79 ND 2.56 | 0 of 18 |
| 19 | Q27T/W56N/T59C | Ctrl | 0.66 0.55 1.09 0.83 0.48 0.56 | 1 of 18 (2.32) |
| 20 | S38A/W56G/S62T | Ctrl | 0.51 0.53 0.54 0.21 0.60 0.60 | 3 of 18 (2.46) |
| 21 | W56F/Q96C | Ctrl | ND ND ND ND ND ND | 1 of 18 (1.41) |
| 22 | S25M/W56G/S103Q | Ctrl | -0.46 -0.53 -0.31 -0.83 -0.36 -0.29 | 0 of 18 |
| 23 | K24E/S25F/V29G/R34T/W56G/S62W/Q95S/R99T | Ctrl | 0.70 0.32 0.87 0.85 0.87 1.34 | 0 of 18 |
| 24 | S28T/S62V | Ctrl | ND 3.40 3.54 1.90 2.78 2.06 | 1 of 18 (2.50) |
| 25 | S25L/W56S/T59A | Ctrl | 0.09 0.14 -0.03 -0.12 -0.08 0.31 | 1 of 18 (1.98) |
| 26 | S33D/R34N/W56D/S62L | Ctrl | 0.65 -0.63 0.15 -0.14 -0.09 0.00 | 0 of 18 |
| 27 | S25H/R34H | Ctrl | ND 2.28 1.85 ND 2.12 ND | 0 of 18 |
| 28 | Y31F/K36D/W56G/P101V | Ctrl | 1.17 0.90 0.12 ND 0.26 2.87 | 0 of 18 |
| 29 | S25F/W56D | Ctrl+GPLM_HC | -0.21 -0.01 -0.29 -0.28 -0.20 -0.22; 0.00 -0.08 -0.11 -0.40 -0.20 -0.06 | 1 of 36 (2.11) |
| 30 | S25N/N37K/W56Q/P101W | Ctrl | ND ND ND ND ND ND | 0 of 18 |
| 31 | K24G/Y31L/W56A/P101C | Ctrl | ND ND ND ND ND ND | 0 of 18 |
| 32 | S28D/S58V/S62V/H98Y/S103W | Ctrl | 1.17 1.41 0.29 0.88 0.79 0.22 | 0 of 18 |
| 33 | S38F/S62D | Ctrl | ND ND ND ND ND ND | 0 of 18 |
| 34 | S28A/W56G/H98F | Ctrl | -0.42 -0.24 -0.19 -0.35 -0.20 -0.19 | 1 of 18 (1.97) |
| 35 | K24R/S26C/E32D/N35D/K36G/V39I/S62P | Ctrl | ND 3.84 2.11 ND ND 2.19 | 0 of 18 |
| 36 | S25V/W56N | Ctrl+GP_Gen | 0.02 0.02 -0.08 -0.17 -0.24 -0.02; 0.08 -0.06 -0.18 -0.24 -0.24 0.25 | 5 of 36 (3.46) |

The opening 6 entries, copied out:

| changes | group | replicates, log10 nM | signal with controls |
|---|---|---|---|
| N37Q | Ctrl | 1.18 0.68 0.43 0.81 0.35 0.65 | 0 of 18 |
| Y31P/H98Y | Ctrl | ND ND 1.27 0.65 1.26 1.55 | 0 of 18 |
| V39N/T59V | Ctrl | ND 3.66 ND ND ND ND | 0 of 18 |
| W56Y/A57D/S62Q/R99H | Ctrl | ND 3.00 2.84 1.73 2.99 2.58 | 2 of 18 (2.98) |
| K24F/S25W/V29L/L102F | Ctrl | ND ND ND 2.43 ND ND | 0 of 18 |
| S25V/N37Y/R99G | Ctrl | ND ND ND 2.37 ND 2.05 | 1 of 18 (1.70) |

Nonspecific signal, from three strains lacking the peptide, appeared in 4% of pairings of all light chain designs, centred on 2.64 (5% of these signals below 1.59); values are not corrected for it. For each scFv, signals with the empty controls are counted beside the result, with their mean in brackets. Of ten entries with the parent sequence, four were seen in most replicates (averages 0.34 to 2.37), three in one and three in none, so single entries are noisy. Some sequences occur more than once in the pool; their replicates are listed entry by entry, parted by semicolons. A sequence measured in both rounds can read differently, since the two assays cover different ranges.